# In patent US7803788B2, “Prodrugs of phosphonate nucoleotide analogues” (Gilead Sciences, Inc., priority 2000, dated 2010):
# What was measured:
# [1] = system: PLCE (porcine liver carboxyesterase); assay: PLCE hydrolysis; type: in vitro ADME; settings: 37° C., PBS pH 7.4
# [2] = Stability in human plasma; type: in vitro ADME; settings: 37° C., TBS pH 7.5
smiles,measurement,setting,value
"CC(C)OC(=O)C(C)NP(=O)(COC(C)Cn1cnc2c(N)ncnc21)Oc1ccccc1 (single isomer, unassigned) [compound 4]",PLCE hydrolysis product,[1],Met. X & PMPA
same,Human Plasma Stability (HP) product,[2],Met. Y
